Values of other authors as cited in patent US12377034B2, “Method for dyeing keratinous material, comprising the use of an organosilicon compound, an effect pigment and a film-forming polymer II” (Henkel AG & Co. KGaA, priority 2019, dated 2025).

Details: 25° C.

Question: For “3,4,5,6-tetrachloro-2-(1,4,5,8-tetrabromo-6-hydroxy-3-oxoxanthen-9-yl)benzoic acid [Acid Red 92]”, which solubility in water is on record?
Answer: greater than 10 g/L
